Data set [1] in a line: Plasma pharmacokinetics in A549 xenograft nude mice. As to conditions: IP, 30 mg/kg, in DMSO, tested form: diammonium salt (as drawn, CO2NH4). The procedure:
FIG. 9 is an image depicting the plasma pharmacokinetics of the BH3M6 compound at 30 mg/kg from free drug delivered i.p., or micelle formulation delivered i.v. or oral gavage.
An A549 lung cancer xenograft model was used for the plasma and tumor accumulation studies. A549 lung cancer xenografts were grown in nude mice by implanting approximately 10 million cells into the right flank of each mouse, and allowed 3 weeks for the tumors to establish log growth and reach about 300-400 mm^3. The formulation from Example 2 was dissolved in 150 mM NaCl for both intravenous (IV) administration and oral administration. The free drug was dissolved in DMSO for intraperitoneal (IP) administration. Time points for sample collection were 5 minutes, 1 hour and 6 hours post administration. Naive, tumor-bearing mice were used as controls for blank plasma and tumor tissue. Blood was collected by heart puncture, where approximately 500 μL was added to a 1.5 mL collection tube containing EDTA as anticoagulant. Plasma was isolated from blood by centrifugation at 2000 RPM for 5 minutes. The BH3-M6 compound was extracted from plasma by adding 50 μL of each plasma sample to 150 μL ice cold methanol. Samples were vortexed for 10 minutes, centrifuged at 13,000 RPM for 10 minutes, and the methanol supernatant was collected for HPLC analysis to determine plasma pharmacokinetics of the BH3-M6 compound.

For the next data set, the system named is MDA-MB-468 control cells. As to the kind of experiment: Caspase-3/-7 activation and TUNEL in MDA-MB-468 control cells. As to conditions: 24 h, tested form: diammonium salt (as drawn, CO2NH4). The procedure: FIG. 6 is a series of images illustrating BH3-M6 induces apoptosis in a Bcl-2-, Bcl-XL-, and Mcl-1-dependent manner. BH3-M6 induces caspase-3/-7 activities and apoptosis in Bcl-XL/Bim, Bcl-2/Bim and Mcl-1/Bim overexpressing cells. MDA-MB-468 cells transfected with Bcl-XL-IRES-BimEL, Bcl-2-IRES-BimEL, and Mcl-1-IRES-BimEL were grown in 100-mm plates and treated with 0, 25, 50, or 100 μM BH3-M6 or 100 μM of TPC for 24 h at 37° C. Cells were then harvested and lysed using 0.2% NP-40 lysis buffer (without protease and phosphatase inhibitors for cell-free caspase assay and with protease and phosphatase inhibitors for Western blot analysis). (A) Caspase-3/-7 activity was determined by incubating whole-cell extracts with caspase-3/-7 substrate and measuring free AMCs (left panel), apoptosis was quantified by TUNEL assay (middle panel), gray: TPC, black: BH3-M6. BimEL, Bcl-XL, Bcl-2 and Mcl-1 expression levels were determined by Western blotting (right panel). (B) PARP cleavage by Western blotting. (C) Expression levels of different anti- and pro-apoptotic proteins in DU-145 and LNCaP cells as determined by Western blotting. (D) BH3-M6 induces apoptosis in LNCaP human prostate cancer cells expressing Bax, but not in DU-145 human prostate cancer cells lacking detectable Bax expression. LNCaP and DU-145 cells were treated with 0, 25 and 50 μM of BH3-M6 or 50 μM of TPC for 24 h. […]

In the case of `CC(C)Cc1cc(-c2ccc(-c3ccc(CCC(=O)O)cc3CC(C)C)cc2Cc2ccccc2)ccc1OCC(=O)O`, in data set [1], the AUC is 28500 ng·h/mL, the CMax was found to be 10.1 µg, the TMax came to 5 min and the T½ amounted to 3.7 h. Moreover, in the data set on MDA-MB-468 control cells, the “apoptosis by caspase-3/-7 activation and TUNEL assays” value is on record as “little apoptosis”.

A word on the AUC: it is the area under the concentration-time curve, a measure of exposure.
